This note sets out measurements from ChEMBL document CHEMBL2331532, “(+)-Laburnamine, a natural selective ligand and partial agonist for the α4β2 nicotinic receptor subtype” (J Nat Prod, 2013).

Sequences of proteins named here, by UniProt entry; tags and fusion partners are left off. Residues count along the entry.
UniProt P36544, 23-502 limits assumed: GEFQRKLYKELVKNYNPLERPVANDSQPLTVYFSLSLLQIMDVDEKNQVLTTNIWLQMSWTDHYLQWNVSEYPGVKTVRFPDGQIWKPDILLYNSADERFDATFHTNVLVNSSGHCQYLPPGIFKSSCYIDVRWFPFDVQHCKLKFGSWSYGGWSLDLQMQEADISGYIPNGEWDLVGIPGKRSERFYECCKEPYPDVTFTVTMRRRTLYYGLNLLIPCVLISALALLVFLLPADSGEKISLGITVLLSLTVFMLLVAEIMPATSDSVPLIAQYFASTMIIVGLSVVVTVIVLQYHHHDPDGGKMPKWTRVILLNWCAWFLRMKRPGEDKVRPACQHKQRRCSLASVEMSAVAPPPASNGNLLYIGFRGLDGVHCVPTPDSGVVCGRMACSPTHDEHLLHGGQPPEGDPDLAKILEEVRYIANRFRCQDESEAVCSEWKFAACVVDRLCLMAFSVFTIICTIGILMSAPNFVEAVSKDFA
UniProt P17787, 26-502 limits assumed: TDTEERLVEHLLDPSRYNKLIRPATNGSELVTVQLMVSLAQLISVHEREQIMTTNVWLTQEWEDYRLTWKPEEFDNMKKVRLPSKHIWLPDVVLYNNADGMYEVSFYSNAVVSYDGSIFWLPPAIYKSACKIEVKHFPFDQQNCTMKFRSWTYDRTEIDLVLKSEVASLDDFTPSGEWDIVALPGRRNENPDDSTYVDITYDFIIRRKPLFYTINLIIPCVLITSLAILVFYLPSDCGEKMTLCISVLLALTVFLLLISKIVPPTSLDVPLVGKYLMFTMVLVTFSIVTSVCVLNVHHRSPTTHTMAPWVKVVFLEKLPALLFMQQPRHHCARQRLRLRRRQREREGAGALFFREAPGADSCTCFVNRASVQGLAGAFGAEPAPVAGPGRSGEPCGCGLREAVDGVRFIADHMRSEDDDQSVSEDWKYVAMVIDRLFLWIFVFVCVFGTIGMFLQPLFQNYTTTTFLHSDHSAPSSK
UniProt P43681, 27-627 limits assumed: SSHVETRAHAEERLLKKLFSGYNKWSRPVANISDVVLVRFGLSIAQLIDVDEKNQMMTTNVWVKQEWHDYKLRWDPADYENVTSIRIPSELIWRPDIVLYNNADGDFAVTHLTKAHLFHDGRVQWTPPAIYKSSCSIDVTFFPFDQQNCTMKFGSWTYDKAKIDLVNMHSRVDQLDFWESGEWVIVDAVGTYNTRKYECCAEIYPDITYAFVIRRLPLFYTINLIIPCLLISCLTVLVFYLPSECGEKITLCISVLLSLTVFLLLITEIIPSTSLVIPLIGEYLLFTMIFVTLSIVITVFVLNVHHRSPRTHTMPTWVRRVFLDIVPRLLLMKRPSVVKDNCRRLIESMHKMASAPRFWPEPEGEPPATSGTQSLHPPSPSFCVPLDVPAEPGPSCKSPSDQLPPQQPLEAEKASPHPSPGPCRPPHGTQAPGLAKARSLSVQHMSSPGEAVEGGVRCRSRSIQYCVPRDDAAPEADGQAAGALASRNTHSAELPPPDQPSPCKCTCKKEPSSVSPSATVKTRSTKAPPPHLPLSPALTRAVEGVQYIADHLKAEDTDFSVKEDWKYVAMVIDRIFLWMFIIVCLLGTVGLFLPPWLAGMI

The target of experiment [1] is Neuronal acetylcholine receptor subunit alpha-7 (Homo sapiens, UniProt P36544). The experiment is described as follows: Displacement of [125I]alpha-bungarotoxin from alpha7 nAChR (unknown origin). A general note: Displacement assays read how much labelled ligand stays bound in the presence of the test substance.
The target in experiment [2] is Neuronal acetylcholine receptor; alpha4/beta2 (Homo sapiens, UniProt P17787+P43681).

In general, Ki refers to the dissociation constant of the complex between target and ligand, obtained from inhibition or displacement. As for `CC(=O)C1=CCC[C@@H]2CC[C@H]1N2`, the results for the Ki in experiment [1] and in experiment [2] were 91 nM and 0.34 nM, respectively.
